From patent US8993752B2, “Neprilysin inhibitors” (Theravance Biopharma R&D IP, LLC, priority 2011, dated 2015)

Sequences of proteins named here, by UniProt entry; tags and fusion partners are left off.
UniProt P08473, whole entry: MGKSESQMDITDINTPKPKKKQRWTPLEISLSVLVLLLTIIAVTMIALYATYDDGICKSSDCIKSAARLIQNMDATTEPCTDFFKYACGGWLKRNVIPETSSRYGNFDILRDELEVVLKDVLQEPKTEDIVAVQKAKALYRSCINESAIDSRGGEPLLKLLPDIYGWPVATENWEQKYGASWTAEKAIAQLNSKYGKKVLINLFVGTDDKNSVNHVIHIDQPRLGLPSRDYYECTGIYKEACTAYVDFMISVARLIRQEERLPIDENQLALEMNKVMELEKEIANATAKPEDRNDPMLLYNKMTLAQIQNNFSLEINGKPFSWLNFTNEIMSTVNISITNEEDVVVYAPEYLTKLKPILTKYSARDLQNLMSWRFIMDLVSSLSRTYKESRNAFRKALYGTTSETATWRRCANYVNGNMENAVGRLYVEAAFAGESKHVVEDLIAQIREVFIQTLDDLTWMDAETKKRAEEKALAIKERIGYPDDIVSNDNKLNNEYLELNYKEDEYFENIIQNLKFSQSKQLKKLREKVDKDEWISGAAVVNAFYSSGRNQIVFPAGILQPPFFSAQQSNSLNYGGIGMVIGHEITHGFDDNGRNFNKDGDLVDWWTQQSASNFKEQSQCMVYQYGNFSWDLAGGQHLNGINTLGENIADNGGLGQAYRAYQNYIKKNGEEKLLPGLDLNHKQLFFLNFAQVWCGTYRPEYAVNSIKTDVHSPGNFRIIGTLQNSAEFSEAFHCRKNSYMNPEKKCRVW

Target: human NEP (Homo sapiens, UniProt P08473)
Experiment: In vitro enzyme inhibition assay at human NEP (fluorogenic peptide substrate)
Conditions: recombinant human NEP; substrate Mca-D-Arg-Arg-Leu-Dap-(Dnp)-OH 10 μM; 37° C.; values given as ranges; tested form: TFA salt
Experimental: The inhibitory activities of compounds at human and rat neprilysin (EC 3.4.24.11; NEP) and human angiotensin converting enzyme (ACE) were determined using in vitro assays as described below.
Recombinant human NEP and recombinant human ACE were obtained commercially (R&D Systems, Minneapolis, Minn., catalog numbers 1182-ZN and 929-ZN, respectively). The fluorogenic peptide substrate Mca-D-Arg-Arg-Leu-Dap-(Dnp)-OH (Medeiros et al. (1997) Braz. J. Med. Biol. Res. 30:1157-62; Anaspec, San Jose, Calif.) and Abz-Phe-Arg-Lys(Dnp)-Pro-OH (Araujo et al. (2000) Biochemistry 39:8519-8525; Bachem, Torrance, Calif.) were used in the NEP and ACE assays respectively.
The assays were performed in 384-well white opaque plates at 37° C. using the fluorogenic peptide substrates at a concentration of 10 μM in Assay Buffer (NEP: 50 mM HEPES, pH 7.5, 100 mM NaCl, 0.01% polyethylene glycol sorbitan monolaurate (Tween-20), 10 μM ZnSO4; ACE: 50 mM HEPES, pH 7.5, 100 mM NaCl, 0.01% Tween-20, 1 μM ZnSO4). […]
Plates were read on a fluorometer with excitation and emission wavelengths set to 320 nm and 405 nm, respectively Inhibition constants were obtained by nonlinear regression of the data using the equation (GraphPad Software, Inc., San Diego, Calif.): v=v0/[1+(I/K′)] where v is the reaction rate, v0 is the uninhibited reaction rate, I is the inhibitor concentration and K′ is the apparent inhibition constant. […]

Row | Structure (SMILES) | pKi values at human NEP
1 | COc1ccc(Cn2nc(C(=O)N[C@H](Cc3ccccc3)[C@@H](O)C(=O)O)cc2C(=O)O)cc1 | 8.0-8.9
2 | O=C(N[C@H](Cc1ccccc1Cl)[C@@H](O)C(=O)O)c1cc(C(=O)O)n(Cc2ccc(Cl)cc2F)n1 | 8.0-8.9
